E-sel inducer: E-selectin induction in HUVECs, primary screen, imaging, HUVEC, immunofluorescence imaging, single point. activation, % at 7.58 µM. P16581. normalized: neutral wells 0, TNF-alpha wells 100. 260,000 tested, 0.37% active;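 active means mean E-selectin-positive cell signal at least 10% of the positive control, reached in at least 60% of replicates, without over 20% cell loss; inconclusive means no rule given, readout overlaps actives, possibly toxicity-flagged; inactive means the rest, including those meeting only one limit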
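material = human umbilical vein endothelial cells (HUVEC), E-selectin induction | quantity = 3,000 cells/well | medium = EGM-2 growth medium on 0.1% gelatin-coated wells | technique = immunofluorescence imaging | read-out basis = % PE-positive cells | control set = TNF-alpha positive control, DMSO neutral control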
ERAP1 HTS inh: human ERAP1 aminopeptidase inhibitors, primary screen, biochemical, single point, plate reader. AID 652197, 2013. Endoplasmic reticulum aminopeptidase 1 (Homo sapiens), Q9NZ08. inhibition, % at 10.7 µM. 340,000 tested, 0.15% active. recombinant ERAP1, Leu-AMC fluorescence, 60 min;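 active means mean replicate inhibition of at least 30%, or all replicates individually reaching that 30% level; inactive means mean below 30% and not every replicate reaching it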;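 further: 0% = neutral control wells and 100% = L-leucinethiol positive control wells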
AF4-AF9 inh: inhibitors of AF4 peptide binding to AF9, primary screen, biochemical, AlphaScreen, biotin-AF4 peptide, FLAG-AF9, single point | inhibition, % at 10 µM | 350,000 tested, 0.47% active | AID 651704, 2012;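 active means every replicate reaching a set inhibition limit, whatever the replicate mean, cut at about 25% in these data; inconclusive means mean inhibition reaches that limit but some replicates miss it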;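 further: 0% = plate neutral control median and 100% = total signal loss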
ARNT-TACC3 inh: disruptors of ARNT/TACC3 protein interaction, primary screen, biochemical, AlphaScreen, single concentration. Transforming acidic coiled-coil-containing protein 3 (Homo sapiens), Q9Y6A5. AlphaScreen His-ARNT PAS-B/GST-TACC3 binding, luminescence; TACC3 fragment carries E629A point mutation. inhibition, % at 9.99 µM. 390,000 tested, 0.66% active. AID 623870, 2012;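 active means mean inhibition of replicates at least 50% and at least half of replicates each reaching 50%; inconclusive means half or more replicates reach 50% but mean below 50%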;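 further: 0% = complete ARNT plus TACC3 wells and 100% = ARNT alone without TACC3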
Yeast UUG start: alters start codon recognition fidelity in yeast; S. cerevisiae UUG-firefly luciferase reporter, luminescence/redox ratio; activity score, % at 18.7 µM; actives 0.13% (n = 350,000); AID 602363;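 active = replicate mean at a twofold rise or more, about +100% in these data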;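 also: firefly luciferase made from a UUG start codon reports start codon fidelity; reporter light over untreated wells divided by growth signal over untreated wells; some hits fall short of that in this replicate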
S100A4 inh HTS: inhibitors of S100A4-myosin IIA peptide binding, primary screen, biochemical, fluorescence polarization, TAMRA-MyoIIA peptide. AID 652163, 2013. Protein S100-A4 (Homo sapiens), P26447. 360,000 tested, 0.14% active. inhibition, % at 10.7 µM;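 active means mean inhibition of at least 70% across replicates, with every replicate also reaching that level; inconclusive means mean inhibition reaches 70% but some replicates fall short; inactive means mean inhibition below 70%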
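Test system – S100A4 monomer (human) · Compound – single-point compound testing · Schedule – 5 min incubation before reading · Probe or stimulus – TAMRA-labelled myosin IIA heavy-chain peptide probe, 5 nM · Benchmarks – neutral control DMSO, positive control TFP · Medium – Calcium-containing HEPES buffer, pH 7.2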
The depositor's hits bear a star; ? = inconclusive; · = no result given. Most compounds without a hit are left out; they make up all but 1.3% or so of the library.

SMILES	E-sel inducer	ERAP1 HTS inh	AF4-AF9 inh	ARNT-TACC3 inh	Yeast UUG start	S100A4 inh HTS
CC(C)NC(=O)N(C)C[C@H]1Oc2ccc(NS(=O)(=O)c3ccc(Cl)cc3)cc2CC(=O)N([C@H](C)CO)C[C@@H]1C	?	·	-1.2	·	·	·
C[C@@H]1CN([C@@H](C)CO)C(=O)Cc2cc(NS(=O)(=O)c3ccc(F)cc3)ccc2O[C@H]1CN(C)S(=O)(=O)c1ccc(Cl)cc1	33.9*	·	·	1.6	11.6	·
CC(C)NC(=O)N(C)C[C@@H]1Oc2ccc(NS(=O)(=O)c3ccc(Cl)cc3)cc2CC(=O)N([C@@H](C)CO)C[C@@H]1C	21.7	1.4	36.2*	-13.0	-7.0	-11.3
C[C@@H]1CN([C@@H](C)CO)C(=O)Cc2cc(NS(=O)(=O)c3ccc(Cl)cc3)ccc2O[C@H]1CN(C)S(=O)(=O)c1ccc(F)cc1	-0.4	2.0	0.0	2.5	12.8	-6.3
CC(C)NC(=O)N(C)C[C@@H]1Oc2ccc(N(C)C)cc2CC(=O)N([C@H](C)CO)C[C@H]1C	·	3.2	-2.2	47.6*	·	4.0
C[C@H]1CN([C@@H](C)CO)C(=O)Cc2cc(NS(=O)(=O)c3ccc(F)cc3)ccc2O[C@@H]1CN(C)S(=O)(=O)c1ccc(Cl)cc1	59.7*	·	·	-3.0	4.7	·
C[C@H](CO)N1C[C@H](C)[C@@H](CN(C)Cc2ccccc2)Oc2ncc(/C=C/c3ccccc3)cc2C1=O	-0.1	-0.1	13.4	3.3	-5.3	13.2
O=C(c1cnccn1)N1CC[C@H]2[C@H](CO)Nc3ccc(C#Cc4cccnc4)cc3[C@H]21	0.4	-0.5	0.3	0.9	-0.9	-7.3
Cn1cccc1/C=C1\SC(=Nc2cccc(O)c2)NC1=O	·	6.3	25.1*	2.9	-27.3	-1.0
Cn1cccc1/C=C1\SC(=Nc2ccc(O)cc2)NC1=O	0.2	·	6.6	3.0	·	0.8
CCNC(=S)NCc1ccc2[nH]c(C)cc2c1	1.0	11.6	27.0*	-9.0	-33.2	-1.4
C[C@@H]1CCCCO[C@H](CN(C)C(=O)CCCN(C)C)[C@H](C)CN([C@@H](C)CO)C(=O)c2cc(NS(=O)(=O)c3cccs3)ccc2O1	0.3	-0.2	-0.7	-12.1	5.6	-0.5
C[C@H]1CN([C@@H](C)CO)C(=O)Cc2cc(N(C)C)ccc2O[C@H]1CN(C)Cc1ccc(C(F)(F)F)cc1	-4.4	·	·	·	3.1	-0.2
C[C@H](CO)N1C[C@H](C)[C@@H](CN(C)Cc2ccc(-c3ccccc3)cc2)Oc2ccc(N(C)C)cc2CC1=O	0.0	0.9	58.8*	27.6	94.9	-8.4
C[C@@H]1CN([C@H](C)CO)C(=O)Cc2cc(N(C)C)ccc2O[C@H]1CN(C)Cc1ccc(-c2ccccc2)cc1	-0.1	7.7	35.6*	14.7	-11.0	7.6
C[C@@H]1CN([C@@H](C)CO)C(=O)Cc2cc(N(C)C)ccc2O[C@H]1CN(C)Cc1ccc(C(F)(F)F)cc1	-0.9	0.2	42.5*	24.0	0.5	8.6
C[C@@H]1CN([C@@H](C)CO)C(=O)Cc2cc(N(C)C)ccc2O[C@@H]1CN(C)Cc1ccccc1	0.2	1.2	8.4	0.3	-9.5	-0.6
C[C@@H]1CN([C@H](C)CO)C(=O)Cc2cc(N(C)C)ccc2O[C@@H]1CN(C)Cc1ccc(-c2ccccc2)cc1	0.1	-0.8	44.0*	14.6	5.9	-1.9
COc1ccc2c3c([nH]c2c1)[C@H](CO)N(Cc1ccccc1F)CC31CCN(C(=O)C2CCC2)CC1	-0.7	-0.4	·	·	·	-2.4
C[C@H]1CCCCO[C@H](CN(C)C(=O)Nc2ccc(C(F)(F)F)cc2)[C@@H](C)CN([C@@H](C)CO)C(=O)c2cc(NC(=O)C3CCCCC3)ccc2O1	0.0	-0.1	-4.1	-1.6	1.0	-2.8
CNC(=O)C[C@H]1CC[C@@H]2[C@H](COc3ccc(NC(=O)c4ccc(F)c(F)c4)cc3C(=O)N2C)O1	0.0	1.1	-1.0	-7.1	5.0	?
C[C@H]1CN([C@@H](C)CO)C(=O)Cc2cc(N(C)C)ccc2O[C@H]1CN(C)Cc1ccccc1	-0.2	0.6	1.8	-6.2	-17.1	1.5
C[C@H]1CN([C@@H](C)CO)C(=O)Cc2cc(N(C)C)ccc2O[C@H]1CN(C)Cc1ccc(-c2ccccc2)cc1	0.1	0.4	44.2*	21.3	1.4	8.9
C[C@@H]1CN([C@@H](C)CO)C(=O)Cc2cc(N(C)C)ccc2O[C@@H]1CN(C)Cc1ccc(Oc2ccccc2)cc1	10.2	-1.0	38.0*	24.8	8.3	17.6
CC(=O)Nc1ccc(S(=O)(=O)NNc2cccc(C)c2)cc1	57.2*	26.7	2.4	10.5	-25.5	-0.7

The last five compounds of the section before lead into the next.
SMILES	E-sel inducer	ERAP1 HTS inh	AF4-AF9 inh	ARNT-TACC3 inh	Yeast UUG start	S100A4 inh HTS
CNC(=O)C[C@H]1CC[C@@H]2[C@H](COc3ccc(NC(=O)c4ccc(F)c(F)c4)cc3C(=O)N2C)O1	0.0	1.1	-1.0	-7.1	5.0	?
C[C@H]1CN([C@@H](C)CO)C(=O)Cc2cc(N(C)C)ccc2O[C@H]1CN(C)Cc1ccccc1	-0.2	0.6	1.8	-6.2	-17.1	1.5
C[C@H]1CN([C@@H](C)CO)C(=O)Cc2cc(N(C)C)ccc2O[C@H]1CN(C)Cc1ccc(-c2ccccc2)cc1	0.1	0.4	44.2*	21.3	1.4	8.9
C[C@@H]1CN([C@@H](C)CO)C(=O)Cc2cc(N(C)C)ccc2O[C@@H]1CN(C)Cc1ccc(Oc2ccccc2)cc1	10.2	-1.0	38.0*	24.8	8.3	17.6
CC(=O)Nc1ccc(S(=O)(=O)NNc2cccc(C)c2)cc1	57.2*	26.7	2.4	10.5	-25.5	-0.7
Cc1cccc(NC(=O)NNS(=O)(=O)c2ccc(F)cc2)c1	-1.7	-1.0	-2.9	14.7	·	-1.3
C[C@H](CO)N1C[C@H](C)[C@H](CN(C)S(=O)(=O)c2ccccc2)OCCCC[C@H](C)Oc2ccc(NC(=O)Nc3ccccc3)cc2C1=O	·	2.2	0.7	-10.5	-20.9	-2.3
Nc1c(C(=O)O)ccc2c1C(=O)c1ccccc1C2=O	·	6.2	0.9	-3.8	·	-34.9
Nc1cc(C(=O)O)c(N)c2c1C(=O)c1ccccc1C2=O	·	·	·	55.4*	·	·
CCNC(=O)N1c2ccc(OCC)cc2C(C)=CC1(C)C	·	·	·	44.7	-26.2	·
COc1ccc2c(c1)C(C)=CC(C)(C)N2S(=O)(=O)c1ccc(C)cc1	·	0.0	4.1	4.1	·	-3.6
COc1ccc2c(c1)[N+](C)(C)C(C)(C)C=C2C	2.9	44.8*	5.0	-2.2	1.2	-0.7
CCOc1ccc2c(c1)[N+](C)(C)C(C)(C)C=C2C	·	41.0*	-0.9	·	·	-0.6
CC(=O)N1C[C@H]2CON(C)[C@H]2C[C@H]1c1cccc(N2CCOCC2)c1	-0.2	108.3*	0.4	·	-4.6	0.0
O=C(C[C@@H]1CC[C@@H]2[C@H](COC[C@H](O)CN2Cc2cccc(C(F)(F)F)c2)O1)NCc1ccncc1	0.0	-2.2	-0.1	6.1	-8.2	-0.3
CC1CC(=O)c2c(cc3c(-c4c(O)cc(O)c5c(O)c6c(cc45)OC(C)CC6=O)c(O)cc(O)c3c2O)O1 (stereo not drawn)	·	·	·	95.7*	-7.9	·
CC(C)C#Cc1ccc2c(c1)O[C@H](CN(C)C(=O)C1CCC1)[C@H](C)CN([C@@H](C)CO)S2(=O)=O	0.0	·	·	·	·	·
CO[C@@H]1CN(C)C(=O)c2cc(NS(=O)(=O)CC(F)(F)F)ccc2OC[C@@H](C)N(C)C[C@H]1C	0.0	0.9	-2.0	1.2	-11.7	105.9*

Screening results as filed in PubChem.
